The values below come from publication doi:10.1101/2024.03.22.586364, “Development of quantitative high-throughput screening assays to identify, validate, and optimize small-molecule stabilizers of misfolded β-glucocerebrosidase with therapeutic potential for Gaucher disease and Parkinson’s disease” (bioRxiv, 2024).

Where a name gives a salt, the structure may show the parent alone. Residues, ends and D or L forms follow the SMILES beside them. *: point of attachment. Cbz = O=C(OCc1ccccc1)*

For experiment [1], the target named is T1, HiBiT-GCase-L444P (Homo sapiens, UniProt P04062, L483P).
T1 sequence (P04062 40-536 L483P): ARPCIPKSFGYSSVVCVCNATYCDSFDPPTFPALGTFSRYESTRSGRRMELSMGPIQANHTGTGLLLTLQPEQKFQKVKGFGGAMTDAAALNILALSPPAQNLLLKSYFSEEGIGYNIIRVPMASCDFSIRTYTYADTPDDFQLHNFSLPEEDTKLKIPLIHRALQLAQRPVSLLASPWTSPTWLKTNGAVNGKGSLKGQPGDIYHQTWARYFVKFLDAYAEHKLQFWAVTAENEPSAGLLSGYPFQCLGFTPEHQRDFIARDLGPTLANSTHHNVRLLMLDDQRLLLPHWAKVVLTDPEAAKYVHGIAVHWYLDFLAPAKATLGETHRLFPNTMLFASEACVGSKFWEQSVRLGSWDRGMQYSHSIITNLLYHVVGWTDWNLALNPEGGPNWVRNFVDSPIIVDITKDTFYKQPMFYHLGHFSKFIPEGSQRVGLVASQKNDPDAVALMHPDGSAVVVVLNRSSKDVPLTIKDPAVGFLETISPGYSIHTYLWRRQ
Particulars: for effect on HiBiT-GCase-L444P levels (in words): H4 cells, 1536-well format. On the technique in general: With HiBiT, luminescence reflects the tagged protein that the partner subunit can reach.

The target in experiment [2] is T1, HiBiT-GCase-L444P. As to the kind of experiment: cell-based. As to conditions: AC50 (uM), Table S1, confirmed follow-up hits; 24 h treatment; n = 3.

For orientation: AC50 means the concentration giving half of the maximal activity seen. Low values mean activity at low concentration, high ones activity only at high concentration.

Take `CC(C)C[C@@H](C=O)NC(=O)[C@H](CC(C)C)NC(=O)[C@H](CC(C)C)NC(=O)OCc1ccccc1` [MG-132] (Cbz-Leu-Leu-Leu-aldehyde): the “effect on HiBiT-GCase-L444P levels (in words)” value in experiment [1] (24 h treatment) is on record as “selectively stabilized HiBiT-GCase-L444P with a dose-dependent response”.

In the case of `Cc1cc(OCc2nnc(SC3CCCC3)n2-c2cccnc2)ccc1-c1ccc(S(C)(=O)=O)cc1` [NCGC00371131-03, NMS-873], the “effect on HiBiT-GCase-L444P levels (in words)” value in experiment [1] (24 h treatment) was “selectively stabilized HiBiT-GCase-L444P with a dose-dependent response”.

For the molecule `CNCCCC12CCC(c3ccccc31)c1ccccc12` [NCGC00390084-01, Maprotiline hydrochloride], in experiment [2], the activity was half-maximal at 53 µM (AC50). Besides, in experiment [1] (Table S1, confirmed follow-up hits, 24 h treatment, n = 3), the “CC-v2 (qHTS curve class)” value is reported as 2.2. The Efficacy in experiment [1] (Table S1, follow-up screen, 24 h, relative to DMSO control, text quotes these values in %, 100% = doubling of GCase levels) is 48.
